Assay: Mutagenicity in Salmonella typhimurium TA100 assessed as mutagenic index at 0.007 uM/plate after 48 hrs in absence of S9 fraction by Ames test relative to control
Conditions: salmonella enterica subsp. enterica serovar typhimurium, s9, 48 h

## CN(N=O)C(=N)N[N+](=O)[O-]
  Ratio: 22.9

Source: ChEMBL document CHEMBL4477224, “Antidiabetic effect, antioxidant activity, and toxicity of 3',4'-Di-O-acetyl-cis-khellactone in Streptozotocin-induced diabetic rats” (Bioorg Med Chem Lett, 2016)
